Among the data in PubChem BioAssay AID624168 (Sanford-Burnham Center for Chemical Genomics, 2012) are activation values, retold here.

The entries are a selection whose mix differs from that of the whole data set. Active and inactive are the calls of the source.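 How the source made its calls: active means activation of at least 8% versus controls, or a plate z-score of at least 8; inactive means the rest.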

This assay can be described thus: compounds raising alpha-dystroglycan glycosylation – uHTS, Pro5-aDG cells, AlphaScreen, primary screen (AID 624168).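 Further: Pro5 are CHO cells carrying HIG-tagged alpha-DG that lacks glycosylation.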 The following applies: alpha-DG glycosylation AlphaScreen (IIH6), at 10 µM, active compounds read high, 0% Pro5, 100% B10-LARGE cell signal. In general terms: In Alpha technology, singlet oxygen from a donor bead excites a nearby acceptor bead.
`CCC(=O)N(c1ccccc1)C1(COC)CCN(CCc2cccs2)CC1`: the activation is inactive: -0.3%.

`CCC(=O)N(c1ccccc1)C1(COC)CCN(CCn2nnn(CC)c2=O)CC1`: the activation was inactive: 0%.
